Experimental data as given in patent US20050123553A1, “Amyloid beta-peptide and methods of use” (priority 2003, published 2005).

Protein sequences, listed by entry. Tags and fused reporters are not part of them. Lines headed by an entry give the natural chain unless they say otherwise; changes in a name come on top.
UniProt P05067: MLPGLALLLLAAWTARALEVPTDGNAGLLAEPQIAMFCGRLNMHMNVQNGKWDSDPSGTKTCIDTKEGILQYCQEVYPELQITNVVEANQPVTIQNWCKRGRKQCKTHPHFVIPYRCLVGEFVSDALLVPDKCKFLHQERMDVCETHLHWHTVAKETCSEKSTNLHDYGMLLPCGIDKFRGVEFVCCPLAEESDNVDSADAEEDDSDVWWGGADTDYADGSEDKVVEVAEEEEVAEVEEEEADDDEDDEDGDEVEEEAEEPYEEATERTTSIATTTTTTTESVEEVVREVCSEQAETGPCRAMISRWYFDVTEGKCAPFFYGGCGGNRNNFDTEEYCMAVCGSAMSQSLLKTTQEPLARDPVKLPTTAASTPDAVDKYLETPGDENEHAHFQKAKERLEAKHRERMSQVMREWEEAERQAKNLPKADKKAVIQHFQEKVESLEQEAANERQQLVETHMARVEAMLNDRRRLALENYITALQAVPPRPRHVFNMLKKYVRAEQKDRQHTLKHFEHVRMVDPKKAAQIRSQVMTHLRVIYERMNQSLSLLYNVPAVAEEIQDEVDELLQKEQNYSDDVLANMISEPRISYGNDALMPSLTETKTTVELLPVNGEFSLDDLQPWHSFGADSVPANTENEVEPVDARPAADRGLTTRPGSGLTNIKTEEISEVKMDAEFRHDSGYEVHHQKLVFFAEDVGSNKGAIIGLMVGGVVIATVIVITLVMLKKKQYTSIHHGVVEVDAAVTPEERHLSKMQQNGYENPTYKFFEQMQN

Test system: popliteal draining lymph nodes (PLN) T cells
Test: Lymph node T-cell proliferation after immunization of mice with Aβ in CFA
Assay type: cell-based, mouse
Conditions: SJL mice immunized with rodent Aβ1-42

Aβ9-23: Aβ peptide, residues 9-23 (GYEVHHQKLVFFAED; Amyloid-beta protein 42; UniProt P05067 680-694, looked up, fragment)
T-cell proliferation across the peptide series Aβ7-21 to Aβ10-24: gradual increase
